Details: experimental values, compiled

| Compound | logP |
| --- | --- |
| CCC(=O)n1c(=O)n(C2CCN(CCC(C#N)(c3ccccc3)c3ccccc3)CC2)c2ccccc21 | 4.8 |
| CCN(CC)CCN(C=O)c1c(C)cccc1C | 3.21 |
